Experimental data as given in IntAct's records for PubMed 19864627.

B1: Transcription factor p65 (Homo sapiens), Q04206 (parent)
chain: MDELFPLIFPAEPAQASGPYVEIIEQPKQRGMRFRYKCEGRSAGSIPGERSTDTTKTHPTIKINGYTGPGTVRISLVTKDPPHRPHPHELVGKDCRDGFYEAELCPDRCIHSFQNLGIQCVKKRDLEQAISQRIQTNNNPFQVPIEEQRGDYDLNAVRLCFQVTVRDPSGRPLRLPPVLSHPIFDNRAPNTAELKICRVNRNSGSCLGGDEIFLLCDKVQKEDIEVYFTGPGWEARGSFSQADVHRQVAIVFRTPPYADPSLQAPVRVSMQLRRPSDRELSEPMEFQYLPDTDDRHRIEEKRKRTYETFKSIMKKSPFSGPTDPRPPPRRIAVPSRSSASVPKPAPQPYPFTSSLSTINYDEFPTMVFPSGQISQASALAPAPPQVLPQAPAPAPAPAMVSALAQAPAPVPVLAPGPPQAVAPPAPKPTQAGEGTLSEALLQLQFDDEDLGALLGNSTDPAVFTDLASVDNSEFQQLLNQGIPVAPHTTEPMLMEYPEAITRLVTGAQRPPDPAPAPLGAPGLPNGLLSGDEDFSSIADMDFSALLSQISS
partner: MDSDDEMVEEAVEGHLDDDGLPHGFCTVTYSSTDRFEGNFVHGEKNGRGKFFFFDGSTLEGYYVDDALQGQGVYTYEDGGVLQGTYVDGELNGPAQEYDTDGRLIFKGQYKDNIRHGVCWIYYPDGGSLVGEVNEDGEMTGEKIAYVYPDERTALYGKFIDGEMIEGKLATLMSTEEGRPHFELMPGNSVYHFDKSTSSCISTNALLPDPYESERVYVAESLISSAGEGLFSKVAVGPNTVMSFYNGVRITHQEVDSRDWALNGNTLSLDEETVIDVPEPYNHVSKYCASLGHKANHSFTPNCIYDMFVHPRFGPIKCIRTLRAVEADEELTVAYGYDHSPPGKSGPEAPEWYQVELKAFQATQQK

Variants of: B1
Details: with setd7_human SETD7, Q8WTS6

MDELFPLIFPAEPAQASGPYVEIIEQPKQRGMRFRYRCEGRSAGSIPGERSTDTTKTHPTIKINGYTGPGTVRISLVTKDPPHRPHPHELVGKDCRDGFYEAELCPDRCIHSFQNLGIQCVKKRDLEQAISQRIQTNNNPFQVPIEEQRGDYDLNAVRLCFQVTVRDPSGRPLRLPPVLSHPIFDNRAPNTAELKICRVNRNSGSCLGGDEIFLLCDKVQKEDIEVYFTGPGWEARGSFSQADVHRQVAIVFRTPPYADPSLQAPVRVSMQLRRPSDRELSEPMEFQYLPDTDDRHRIEEKRKRTYETFKSIMKKSPFSGPTDPRPPPRRIAVPSRSSASVPKPAPQPYPFTSSLSTINYDEFPTMVFPSGQISQASALAPAPPQVLPQAPAPAPAPAMVSALAQAPAPVPVLAPGPPQAVAPPAPKPTQAGEGTLSEALLQLQFDDEDLGALLGNSTDPAVFTDLASVDNSEFQQLLNQGIPVAPHTTEPMLMEYPEAITRLVTGAQRPPDPAPAPLGAPGLPNGLLSGDEDFSSIADMDFSALLSQISS [K37R] was tested. Which “effect of a mutation on the interaction” value did it give?
The value was “disrupting interaction”.
